Vif imaging – HIV Vif self-association inhibitors, primary screen, imaging, HEK293T, single point | hit rate 0.35% among 340,000 | inhibition, % at 7.49 µM | HEK293T cells, Vif self-association by quenched fluorescence, 24 h; in the data active means inhibition above about 50%, passing the limit was not always enough; inconclusive means no clear call, values can overlap the other calls; inactive means below about 31%
Yeast UUG start – modulators of yeast start codon fidelity, primary screen, whole organism, S. cerevisiae, single point, plate reader | AID 602363, 2012 | S. cerevisiae UUG-firefly luciferase reporter, luminescence/redox ratio | activity score, % at 18.7 µM | hit rate 0.13% among 350,000;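 active = replicate mean at a twofold rise or more, about +100% in these data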;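 also: firefly luciferase made from a UUG start codon reports start codon fidelity; reporter light over untreated wells divided by growth signal over untreated wells; some hits fall short of that in this replicate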
CAL PDZ FP-1 – CAL PDZ peptide-binding inhibitors, primary screen, biochemical, fluorescence polarization, Cer-tagged CAL PDZ, HTS. Golgi-associated PDZ and coiled-coil motif-containing protein (Homo sapiens), Q9HD26. purified CAL PDZ, TMR-peptide fluorescence polarization, 1 h. AID 504414, 2011. hit rate 0.02% among 330,000. inhibition, % at 20 µM;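 active means highest replicate inhibition of at least 40%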;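 further: plate controls were DMSO neutral control wells for no effect and unlabeled competitor peptide control wells for full effect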
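Material: tagged CAL PDZ protein CerCALP, purified; buffer or medium: sodium phosphate/NaCl buffer pH 7.4 with TCEP, IgG, Thesit; also added: fluorescent TMR peptide probe; schedule: 1 h incubation at room temperature before polarization reading; technique: fluorescence polarization from S- and P-plane intensities, G-factor corrected; control set: unlabelled peptide and DMSO controls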
CAL PDZ FP-2 – untagged CAL PDZ binding inhibitors, primary screen, biochemical, fluorescence polarization, HTS | AID 602252, 2012 | inhibition, % at 24.9 µM | purified CAL PDZ, TMR-peptide fluorescence polarization, 1 h | hit rate 0.92% among 300,000;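 active means mean inhibition of at least 30% with at least half of replicates also reaching 30%; inconclusive means no clear call, values can overlap the other calls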;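 further: 0% = DMSO neutral control and 100% = excess unlabeled competitor peptide PRC23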
PglD inh – C. jejuni PglD acetyltransferase inhibitors, primary screen, biochemical, DTNB colorimetric, single point. UDP-N-acetylbacillosamine N-acetyltransferase PglD (Campylobacter jejuni). inhibition, % at 12.5 µM. hit rate 0.098% among 360,000. purified PglD enzyme, DTNB colorimetric CoA detection; in the data active means inhibition above about 16%, passing the limit was not always enough; inconclusive means no clear call, values can overlap the other calls
ARNT TACC3 PPI – disruptors of ARNT/TACC3 protein interaction, primary screen, biochemical, AlphaScreen, single concentration | Transforming acidic coiled-coil-containing protein 3 (Homo sapiens), Q9Y6A5 | AlphaScreen His-ARNT PAS-B/GST-TACC3 binding, luminescence; TACC3 fragment carries E629A point mutation | inhibition, % at 9.99 µM | hit rate 0.66% among 390,000 | AID 623870, 2012;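 active means mean inhibition of replicates at least 50% and at least half of replicates each reaching 50%; inconclusive means half or more replicates reach 50% but mean below 50%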;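 further: 0% = complete ARNT plus TACC3 wells and 100% = ARNT alone without TACC3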
AlphaScreen ctr – AlphaScreen signal interference compounds, dose response, artefact control for ARNT-TACC3 interaction inhibitor project, biochemical, luminescence, cherry-pick; shares compounds with ARNT TACC3 PPI; His-ARNT PASB-GST AlphaScreen artifact counter-screen; AC50, µM (doses to about 68 µM), inactives show at the highest dose activity change, negative = signal decrease; hit rate 50% among 1,200; AID 651705, 2012;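 active means every separate test run was called active for a drop in luminescence, with AC50 within twice the top valid dose, actives reach about 71 µM in these data; inconclusive means the separate test runs disagree in their calls; inactive means all runs inactive, including signal change in the wrong direction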
Starred values were filed as active, the others as inactive; ? = inconclusive; . = no result. In the library only some 1.6% were active in any assay of this set; here they are far more common.

SMILES	Vif imaging	Yeast UUG start	CAL PDZ FP-1	CAL PDZ FP-2	PglD inh	ARNT TACC3 PPI	AlphaScreen ctr
C#CCOCCOCCOCCNc1nc(N2CCN(C(=O)[C@H](CC(N)=O)n3cc([C@@H](N)CC(N)=O)nn3)CC2)nc(N2CCN(C(=O)[C@H](CC(N)=O)n3cc([C@@H](N)CC(N)=O)nn3)CC2)n1	-1.4	-4.5	-0.7	1.1	-1.6	45.8*	-7.4%
C#CCOCCOCCOCCNc1nc(N2CCN(C(=O)[C@H](CCCCN)n3cc([C@@H](N)CC(N)=O)nn3)CC2)nc(N2CCN(C(=O)[C@H](CCCCN)n3cc([C@@H](N)CC(N)=O)nn3)CC2)n1	9.3	49.0	-0.6	-3.7	-0.2	59.8*	-2.7%
Cc1ccc(C)c(-n2c(SCC(N)=O)nnc2-c2ccccn2)c1	.	-1.2	-0.1	.	1.8	57.2*	-25.8%
Cc1cc(C)c(NC(=O)CSc2nnc(-c3ccccn3)n2N)c(Cl)c1	8.6	-14.0	-5.4	0.2	-1.4	54.2*	-21.2%
Cc1ccc(C)c(CSc2nnc(-c3ccccn3)n2N)c1	1.6	-28.5	-0.3	-0.7	2.5	-0.5	.
COc1ccccc1C(CCNCc1ccc(N(C)C)cc1)c1ccc(OC(C)C)cc1 (stereo not drawn)	-0.8	-0.1	.	-13.2	2.1	active	7.71µM*
O=C(Nc1ccc(Br)cn1)c1cccc(C(=O)Nc2ccc(Br)cn2)c1	24.8	-40.1	-0.8	0.4	4.9	active	-1.2%
CCS(=O)(=O)Nc1ccc2c(c1)C(=O)N(C)[C@H]1CC[C@H](CC(=O)NC)O[C@H]1CO2	.	-15.8	.	.	-0.2	-1.3	.
COC(=O)C[C@H]1CC[C@@H]2[C@H](COC[C@H](O)CN2C(=O)Nc2cccc(F)c2)O1	.	-13.7	.	.	0.7	-7.4	.
CCCCCOc1ccc(NC(=O)CSc2cccc3cccnc23)cc1	-6.7	.	-0.3	-4.8	.	58.0*	63.4µM*
O=C(CSc1cccc2cccnc12)Nc1ccc(S(=O)(=O)N2CCOCC2)cc1	-2.2	-4.7	-1.1	-1.3	-0.5	74.2*	32.9µM*
Cc1cccc(CSc2cccc3cccnc23)c1	3.1	-30.8	-1.4	-5.7	-1.2	61.7*	13.1µM*
COc1ccc(CNC(=O)CSc2cccc3cccnc23)cc1	1.9	-20.0	-0.3	7.3	4.4	-3.0	.
CCOC(=O)CSc1cccc2cccnc12	.	-13.4	-1.7	-1.1	-4.8	56.6*	9.31µM*
Cc1ccc(NC(=O)CSCC(=O)Nc2ccc(S(=O)(=O)N3CCOCC3)cc2)cc1	5.1	-12.1	-1.9	-5.6	-1.5	0.6	.
Cc1cccc(CSc2[nH]c(=O)ncc2C)c1	1.8	-23.4	-4.3	-1.7	6.0	-7.2	.
CCCN(C)C[C@@H]1Oc2ncc(-c3ccccc3F)cc2C(=O)N([C@H](C)CO)C[C@H]1C	.	5.6	.	.	2.0	-0.4	.
COc1ccccc1C(=O)Nc1ccccc1N1CCCCC1	-10.8	2.3	0.1	6.9	-3.1	14.1*	5.5%
CC=Cc1ccc2n(c1=O)C[C@H]1[C@H](CO)[C@@H](C(=O)N(C)C)[C@@H]2N1Cc1cc(F)ccc1F (mixture of isomers)	.	.	.	.	-1.5	3.8	.
O=C(NCCCNCCCNC(=O)c1ccc(/C=N/O)nc1)c1ccc(/C=N/O)nc1	7.3	-9.9	0.4	.	-1.6	56.0*	66µM*
Cc1ccc(S(=O)(=O)Nc2ccc3c(c2)C(=O)N([C@H](C)CO)C[C@@H](C)[C@H](CN(C)Cc2ccncc2)OCCCC[C@@H](C)O3)cc1	.	-14.7	.	.	6.0	-8.1	.
CN1CCN(C(=O)c2cccc(-c3cc(O)c4ncccc4c3)c2)CC1	0.6	-4.6	-0.6	-2.1	-0.3	74.6*	17µM*
CN1CCN(c2cc(-c3cc(O)c4ncccc4c3)ccn2)CC1	-7.3	-36.0	-7.8	-1.5	-0.6	69.1*	10.9µM*
C[C@H](CO)N1C[C@H](C)[C@H](CN(C)S(C)(=O)=O)Oc2c(NS(=O)(=O)c3ccc(Cl)cc3)cccc2C1=O	.	2.6	.	.	1.4	1.9	.
CCN1CCN(c2cc(N3CCN(C(=O)c4ccco4)CC3)c3c4c(onc24)-c2ccccc2C3=O)CC1	3.1	-10.4	-2.7	-13.1	-2.9	43.2	.

Complete entries as entered above:
Listed for C#CCOCCOCCOCCNc1nc(N2CCN(C(=O)[C@H](CC(N)=O)n3cc([C@@H](N)CC(N)=O)nn3)CC2)nc(N2CCN(C(=O)[C@H](CC(N)=O)n3cc([C@@H](N)CC(N)=O)nn3)CC2)n1 → Vif imaging = -1.4; Yeast UUG start = -4.5; CAL PDZ FP-1 = -0.7; CAL PDZ FP-2 = 1.1; PglD inh = -1.6; ARNT TACC3 PPI = 45.8*; AlphaScreen ctr = -7.4%
Listed for Cc1cccc(CSc2cccc3cccnc23)c1 → Vif imaging = 3.1; Yeast UUG start = -30.8; CAL PDZ FP-1 = -1.4; CAL PDZ FP-2 = -5.7; PglD inh = -1.2; ARNT TACC3 PPI = 61.7*; AlphaScreen ctr = 13.1µM*

The main list resumes; the two compounds before the break are reprinted first.
SMILES	Vif imaging	Yeast UUG start	CAL PDZ FP-1	CAL PDZ FP-2	PglD inh	ARNT TACC3 PPI	AlphaScreen ctr
C[C@H](CO)N1C[C@H](C)[C@H](CN(C)S(C)(=O)=O)Oc2c(NS(=O)(=O)c3ccc(Cl)cc3)cccc2C1=O	.	2.6	.	.	1.4	1.9	.
CCN1CCN(c2cc(N3CCN(C(=O)c4ccco4)CC3)c3c4c(onc24)-c2ccccc2C3=O)CC1	3.1	-10.4	-2.7	-13.1	-2.9	43.2	.
O=C(O)CCNc1cc(N2CCN(C(=O)c3ccco3)CC2)c2noc3c2c1C(=O)c1ccccc1-3	-0.3	-21.7	-3.4	-18.0	1.3	52.7*	19.1µM*
O=C(Nc1nccs1)c1cnccn1	-3.8	-15.4	-2.2	.	-3.2	51.4*	-5.3%
Cc1[nH][nH]c(=O)c1C(c1ccc(-c2ccc(C(=O)O)cc2)o1)c1c(C)[nH][nH]c1=O	?	.	.	-2.6	.	72.2*	-11.3%
Cc1[nH][nH]c(=O)c1C(c1ccc(-c2ccc(F)cc2)o1)c1c(C)[nH][nH]c1=O	1.2	.	-0.6	-4.0	.	48.3*	-19.3%
COCC(=O)Nc1ccc2c(c1)[C@@H]1C[C@H](CC(=O)NCc3ccc(Cl)cc3)O[C@@H](CO)[C@@H]1O2	.	0.4	.	.	6.0	-7.2	.
Cc1ccc(S(=O)(=O)N(C)C[C@H]2Oc3ccc(NC(=O)Nc4ccc(F)cc4)cc3C(=O)N([C@@H](C)CO)C[C@@H]2C)cc1	.	24.7	.	.	2.0	5.4	.
COc1ccc(S(=O)(=O)n2oc(=O)cc2-c2ccccc2)cc1	.	-59.2	-0.8	4.4	-6.2	15.1	.
COc1ccc(S(=O)(=O)n2oc(=O)cc2-c2ccccc2)cc1OC	.	-16.0	-2.4	-1.9	-3.1	active	7.84µM*
C[C@@H]1CN([C@@H](C)CO)C(=O)c2cc(N(C)C)ccc2O[C@@H](C)CCCCO[C@@H]1CN(C)C(=O)Nc1ccc(F)cc1	.	9.1	.	.	0.6	1.4	.
Cc1nnc(NC(=O)CSc2nnc(CNC(=O)c3ccc(F)cc3)o2)s1	-1.0	-12.5	0.3	-1.5	-0.1	46.5*	-8.0%
C[C@@H]1CN([C@H](C)CO)C(=O)Cc2cc(NC(=O)Cc3cn(C)c4ccccc34)ccc2O[C@@H]1CN(C)S(C)(=O)=O	.	23.2	.	.	-0.7	-6.3	.
O=C(Cn1cnc([N+](=O)[O-])n1)N/N=C/c1cc(Cl)ccc1O	-0.3	.	-2.6	-4.1	.	58.0*	70.4µM*

Screens: PubChem BioAssay, Broad Institute
